Measured values reported in PMC9596378, “Discovery and molecular basis of subtype-selective cyclophilin inhibitors” (Nature Chemical Biology, 2022).
Where two headings read alike, the source gives them in different places.

Sequences of proteins named here, by UniProt entry; tags and fusion partners are left off. Residues count along the entry.
UniProt P23284, 34-216 limits assumed: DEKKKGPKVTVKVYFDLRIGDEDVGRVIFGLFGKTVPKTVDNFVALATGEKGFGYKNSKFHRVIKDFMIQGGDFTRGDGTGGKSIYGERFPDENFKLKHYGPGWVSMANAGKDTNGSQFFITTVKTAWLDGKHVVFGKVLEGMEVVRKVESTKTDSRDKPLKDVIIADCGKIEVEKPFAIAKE
UniProt P30414, 7-179 limits assumed: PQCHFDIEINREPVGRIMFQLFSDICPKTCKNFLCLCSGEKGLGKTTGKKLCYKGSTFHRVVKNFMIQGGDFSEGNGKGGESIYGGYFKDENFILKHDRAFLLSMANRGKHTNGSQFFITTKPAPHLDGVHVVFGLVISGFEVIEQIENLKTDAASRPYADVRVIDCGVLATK
UniProt Q9Y3C6, whole entry: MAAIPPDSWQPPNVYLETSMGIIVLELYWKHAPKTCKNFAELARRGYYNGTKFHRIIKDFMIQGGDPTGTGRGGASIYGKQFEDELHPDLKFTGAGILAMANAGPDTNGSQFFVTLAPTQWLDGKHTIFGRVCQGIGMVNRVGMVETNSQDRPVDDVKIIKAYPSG
UniProt Q08752, 1-183 limits assumed: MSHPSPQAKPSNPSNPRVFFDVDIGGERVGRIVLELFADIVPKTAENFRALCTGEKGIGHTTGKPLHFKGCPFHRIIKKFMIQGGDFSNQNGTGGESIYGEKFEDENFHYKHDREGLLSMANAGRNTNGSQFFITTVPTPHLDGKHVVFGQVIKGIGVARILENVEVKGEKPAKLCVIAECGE
UniProt P30405, 45-207 limits assumed: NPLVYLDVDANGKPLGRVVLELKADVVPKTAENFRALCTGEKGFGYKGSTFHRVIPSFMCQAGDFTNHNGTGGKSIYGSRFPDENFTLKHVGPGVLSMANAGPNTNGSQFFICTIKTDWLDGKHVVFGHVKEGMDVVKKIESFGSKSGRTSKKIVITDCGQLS
UniProt Q9UNP9, 131-301 limits assumed: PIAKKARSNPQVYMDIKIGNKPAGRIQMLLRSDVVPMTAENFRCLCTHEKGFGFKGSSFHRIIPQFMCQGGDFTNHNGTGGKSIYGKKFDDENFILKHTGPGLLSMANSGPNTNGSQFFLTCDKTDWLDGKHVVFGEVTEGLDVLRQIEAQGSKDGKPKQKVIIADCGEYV
UniProt P62937, whole entry: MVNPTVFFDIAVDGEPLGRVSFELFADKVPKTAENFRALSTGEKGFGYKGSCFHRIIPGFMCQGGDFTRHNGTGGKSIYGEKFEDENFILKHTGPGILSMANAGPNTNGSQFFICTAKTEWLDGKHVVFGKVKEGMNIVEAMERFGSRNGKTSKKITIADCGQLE
UniProt Q13427, 1-179 limits assumed: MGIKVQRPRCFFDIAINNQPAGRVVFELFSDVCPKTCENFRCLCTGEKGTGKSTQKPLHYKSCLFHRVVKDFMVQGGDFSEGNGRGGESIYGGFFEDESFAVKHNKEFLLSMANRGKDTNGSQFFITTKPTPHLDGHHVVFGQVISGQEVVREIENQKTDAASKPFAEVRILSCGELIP
UniProt P45877, 24-212 limits assumed: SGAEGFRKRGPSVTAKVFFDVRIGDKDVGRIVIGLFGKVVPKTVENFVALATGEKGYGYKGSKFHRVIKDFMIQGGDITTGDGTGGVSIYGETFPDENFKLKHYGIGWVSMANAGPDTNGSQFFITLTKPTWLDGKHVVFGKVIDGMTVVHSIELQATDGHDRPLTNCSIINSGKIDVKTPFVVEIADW
UniProt O43447, whole entry: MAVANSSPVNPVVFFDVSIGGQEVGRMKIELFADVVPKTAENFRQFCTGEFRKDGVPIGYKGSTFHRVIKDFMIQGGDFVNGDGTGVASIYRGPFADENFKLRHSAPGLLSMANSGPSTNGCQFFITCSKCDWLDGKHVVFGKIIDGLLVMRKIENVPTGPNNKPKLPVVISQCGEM
UniProt Q96BP3, 473-646 limits assumed: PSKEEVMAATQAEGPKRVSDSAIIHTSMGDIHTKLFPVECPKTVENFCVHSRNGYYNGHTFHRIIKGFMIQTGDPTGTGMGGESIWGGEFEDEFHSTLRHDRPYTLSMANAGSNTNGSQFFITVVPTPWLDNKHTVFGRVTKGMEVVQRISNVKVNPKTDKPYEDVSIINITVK

Legend:
CypB = CypB (Homo sapiens, UniProt P23284); settings: read-out: Wild-Type Cyclophilin Prolyl Isomerase Inhibition IC50 Values, CypB; wild-type CypB
NKTR = NKTR (Homo sapiens, UniProt P30414); experiment: Chymotrypsin coupled prolyl-isomerase assay; assay type: biochemical
PPIL1 = PPIL1 (Homo sapiens, UniProt Q9Y3C6); experiment: Chymotrypsin coupled prolyl-isomerase assay; assay type: biochemical; settings: read-out: Wild-Type Cyclophilin Prolyl Isomerase Inhibition IC50 Values, PPIL1; wild-type PPIL1
Cyp40 = Cyp40 (Homo sapiens, UniProt Q08752); experiment: Chymotrypsin coupled prolyl-isomerase assay; assay type: biochemical
CypD = CypD (Homo sapiens, UniProt P30405); experiment: Chymotrypsin coupled prolyl-isomerase assay; assay type: biochemical
CypE = CypE (Homo sapiens, UniProt Q9UNP9); experiment: Chymotrypsin coupled prolyl-isomerase assay; assay type: biochemical
CypA = CypA (Homo sapiens, UniProt P62937); experiment: Chymotrypsin coupled prolyl-isomerase assay; assay type: biochemical
CypG = CypG (Homo sapiens, UniProt Q13427); experiment: Chymotrypsin coupled prolyl-isomerase assay; assay type: biochemical
CypC = CypC (Homo sapiens, UniProt P45877); experiment: Chymotrypsin coupled prolyl-isomerase assay; assay type: biochemical
CypH = CypH (Homo sapiens, UniProt O43447); experiment: Chymotrypsin coupled prolyl-isomerase assay; assay type: biochemical
PPWD1 = PPWD1 (Homo sapiens, UniProt Q96BP3); experiment: Chymotrypsin coupled prolyl-isomerase assay; assay type: biochemical
[1] = read-out: Wild-Type Cyclophilin Prolyl Isomerase Inhibition IC50 Values, NKTR, wild-type NKTR
[2] = read-out: Wild-Type Cyclophilin Prolyl Isomerase Inhibition IC50 Values, Cyp40, wild-type Cyp40
[3] = read-out: Wild-Type Cyclophilin Prolyl Isomerase Inhibition IC50 Values, CypD, wild-type CypD
[4] = read-out: Wild-Type Cyclophilin Prolyl Isomerase Inhibition IC50 Values, CypE, wild-type CypE
[5] = read-out: Wild-Type Cyclophilin Prolyl Isomerase Inhibition IC50 Values, CypA, wild-type CypA
[6] = read-out: Wild-Type Cyclophilin Prolyl Isomerase Inhibition IC50 Values, CypG, wild-type CypG
[7] = read-out: Wild-Type Cyclophilin Prolyl Isomerase Inhibition IC50 Values, CypC, wild-type CypC
[8] = read-out: Wild-Type Cyclophilin Prolyl Isomerase Inhibition IC50 Values, CypH, wild-type CypH
[9] = read-out: Wild-Type Cyclophilin Prolyl Isomerase Inhibition IC50 Values, PPWD1, wild-type PPWD1
[10] = read-out: IC50 PPWD1, prolyl-isomerase inhibition, 5 nM cyclophilin

| Structure (SMILES) | IC50 (CypB) [nM] | IC50 (NKTR; [1]) [nM] | IC50 (PPIL1) [nM] | IC50 (Cyp40; [2]) [nM] | IC50 (CypD; [3]) [nM] | IC50 (CypE; [4]) [nM] | IC50 (CypA; [5]) [nM] | IC50 (CypG; [6]) [nM] | IC50 (CypC; [7]) [nM] | IC50 (CypH; [8]) [nM] | IC50 (PPWD1; [9]) [nM] | IC50 (Cyp40) [nM] | also measured |
| --- | --- | --- | --- | --- | --- | --- | --- | --- | --- | --- | --- | --- | --- |
| N#Cc1ccc(-c2ccc(C[C@@H]3NC(=O)[C@]4(Cc5ccccc5)CCCN(C4)C(=O)/C=C/C(=O)NCC[C@@H](C(=O)NCCOCCN)NC(=O)Cc4ccccc4CNC3=O)cc2)cc1 | 160 | 10000 | 120 | 190 | 70 | 400 | 400 | 6000 | 360 | 40000 | 300 |  | IC50 (CypH; read-out: IC50 CypH, prolyl-isomerase inhibition, 5 nM cyclophilin): 40000 nM |
| NCCOCCNC(=O)[C@@H]1CCNC(=O)/C=C/C(=O)N2CCC[C@](Cc3ccccc3)(C2)C(=O)N[C@@H](Cc2ccc(-c3ccc(C(=O)CCC(=O)O)cc3)cc2)C(=O)NCc2ccccc2CC(=O)N1 | 50 | 50000 | 210 |  | 7 | 70 | 230 | 6000 | 7000 | > 50000 | 16000 | 90 | IC50 (NKTR; read-out: IC50 NKTR, prolyl-isomerase inhibition, 5 nM cyclophilin): 50000 nM; IC50 (PPWD1; [10]): 16000 nM |
| NCCOCCNC(=O)[C@@H]1CCNC(=O)/C=C/C(=O)N2CCC[C@](Cc3ccccc3)(C2)C(=O)N[C@@H](Cc2ccccc2)C(=O)NCc2ccccc2CC(=O)N1 | 160 | 8100 | 2000 |  | 370 | 780 | 1500 | 3700 | 1200 | 12000 | 14000 | 1200 |  |
| NCCOCCNC(=O)[C@@H]1CCNC(=O)/C=C/C(=O)N2CCC[C@](Cc3ccccc3)(C2)C(=O)N[C@@H](Cc2ccc(-c3ccc(CCN)cc3)cc2)C(=O)NCc2ccccc2CC(=O)N1 | 4000 | > 50000 |  |  | 10000 | 10000 | 30000 |  | 3000 | > 50000 | 7000 | 12000 | reduction in potency for CypD on replacing the carboxylate with an amine (CypD): 500- to 1,000 fold; IC50 (CypD; read-out: IC50 CypD, prolyl-isomerase inhibition, 5 nM cyclophilin, Suc-AAPF-AMC, mean±s.e.m. of 3 technical replicates (B52, B53, C3A wild-type: mean±s.d. of 4 independent replicates)): 10000 nM; IC50 (CypE; read-out: IC50 CypE, prolyl-isomerase inhibition, 5 nM cyclophilin): 10000 nM; IC50 (CypA; read-out: IC50 CypA, prolyl-isomerase inhibition, 5 nM cyclophilin): 30000 nM |
| NCCOCCNC(=O)[C@@H]1CCNC(=O)/C=C/C(=O)N2CCC[C@](Cc3ccccc3)(C2)C(=O)N[C@@H](Cc2ccc(-c3ccc([N+](=O)[O-])cc3)cc2)C(=O)NCc2ccccc2CC(=O)N1 | 120 | 8000 | 140 | 120 | 150 | 460 | 600 | 6000 | 320 | > 100000 | 370 |  |  |
| NCCOCCNC(=O)[C@@H]1CCNC(=O)/C=C/C(=O)N2CCC[C@](Cc3ccccc3)(C2)C(=O)N[C@@H](Cc2ccc(O)cc2)C(=O)NCc2ccccc2CC(=O)N1 | 300 | 39000 | 2200 |  | 490 | 1100 | 1300 | 19000 | 810 | 1500 | 10000 | 1100 | IC50 (PPWD1; [10]): 10000 nM |
| NCCOCCNC(=O)[C@@H]1CCNC(=O)/C=C/C(=O)N2CCC[C@](Cc3ccccc3)(C2)C(=O)N[C@@H](Cc2ccc(-c3cccc(O)c3)cc2)C(=O)NCc2ccccc2CC(=O)N1 | 150 | > 50000 | 1900 | 230 | 300 | 700 | 500 | > 50000 | 900 | > 50000 | 10000 |  |  |
| C[C@H](Oc1ccc(-c2ccc(C[C@@H]3NC(=O)[C@]4(Cc5ccccc5)CCCN(C4)C(=O)/C=C/C(=O)NCC[C@@H](C(=O)NCCOCCN)NC(=O)Cc4ccccc4CNC3=O)cc2)cc1)C(=O)O | 400 | > 10000 | 1600 |  | 170 | 700 | 2400 | 9000 | 15000 | > 10000 | > 10000 | 500 | IC50 (CypG; read-out: IC50 CypG, prolyl-isomerase inhibition, 5 nM cyclophilin): 9000 nM; IC50 (CypC; read-out: IC50 CypC, prolyl-isomerase inhibition, 5 nM cyclophilin): 15000 nM |
